The target of the assay is T1, Rab5:wild type (WT), overexpressed in Tet-Off PC12 cells (Homo sapiens (Human), UniProt P20339 1-215, C-terminal cysteines are isoprenylated in cells; only the GTP-bound fraction binds GST-R5BD).
T1 construct: also called Rab5:WT; WT Rab5
T1 sequence: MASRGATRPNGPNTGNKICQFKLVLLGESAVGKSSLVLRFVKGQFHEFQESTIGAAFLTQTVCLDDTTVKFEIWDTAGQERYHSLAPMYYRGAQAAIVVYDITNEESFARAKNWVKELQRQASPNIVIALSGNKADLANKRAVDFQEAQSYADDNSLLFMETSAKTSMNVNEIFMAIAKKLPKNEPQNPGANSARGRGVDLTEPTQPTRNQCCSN
Put plainly: GST-R5BD pull-down from PC12 cell lysate, anti-Rab5 immunoblot, densitometry.

B1: GST-R5BD (fusion protein of glutathione S-transferase and the Rab5-binding domain, residues 739-862, of Rabaptin5) (other)
chain: MSPILGYWKIKGLVQPTRLLLEYLEEKYEEHLYERDEGDKWRNKKFELGLEFPNLPYYIDGDVKLTQSMAIIRYIADKHNMLGGCPKERAEISMLEGAVLDIRYGVSRIAYSKDFETLKVDFLSKLPEMLKMFEDRLCHKTYLNGDHVTHPDFMLYDALDVVLYMDPMCLDAFPKLVCFKKRIEAIPQIDKYLKSSKYIAWPLQGWQATFGGGDHPPKSDLIEGRGIPGNSASISSLKAELERIKVEKGQLESTLREKSQQLESLQEIKISLEEQLKKETAAKATVEQLMFEEKNKAQRLQTELDVSEQVQRDFVKLSQTLQVQLERIRQADSLERIRAILNDTKLTDINQLPET
notes: also called pGEX/Rabaptin-5(R5BD) product; Rabaptin-5 R5BD
With B1, the “pull-down signal, fold lower than that of Rab5:Q79L” value turned out to be 7 fold.

The record behind these values is patent US7838249 (BOARD OF REGENTS OF THE UNIVERSITY OF OKLAHOMA, dated 2010).
